Target: T1, Nicotinamide N-methyltransferase (Homo sapiens) (UniProt P40261)
T1 sequence (whole entry): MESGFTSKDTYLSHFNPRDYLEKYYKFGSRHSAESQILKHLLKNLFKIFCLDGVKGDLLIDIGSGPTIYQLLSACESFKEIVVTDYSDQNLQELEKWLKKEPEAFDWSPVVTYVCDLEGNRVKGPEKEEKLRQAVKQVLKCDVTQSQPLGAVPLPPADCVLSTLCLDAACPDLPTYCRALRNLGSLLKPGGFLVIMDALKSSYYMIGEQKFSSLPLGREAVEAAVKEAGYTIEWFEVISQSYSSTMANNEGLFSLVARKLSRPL
Test: Inhibition of recombinant human NNMT expressed in Escherichia coli BL21(DE3) cells assessed as inactivation first order rate constant after 30 mins in presence of SAM by LC/MS analysis

- K: 1.33 M⁻¹ s⁻¹
Structure (SMILES): NC(=O)c1cnccc1Cl

Source: ChEMBL document CHEMBL4321848 (J Med Chem, 2019)
